Experiment [1] deals with ROMK (Homo sapiens (Human), UniProt P48048). Description: Thallium Flux Assay. It is filed as cell-based. The procedure: A Thallium Flux Assay was performed on the compounds of the Examples. This assay has been described previously; see, e.g., PCT Published Application WO 2013/062900.
The target in experiment [2] is Kir1.1 (ROMK1) (Homo sapiens (Human), UniProt P48048). Description: Electrophysiology Assay (whole cell voltage clamp, IonWorks Quattro). The experiment is classed as cell-based. The following applies: Chinese hamster ovary cells stably expressing Kir1.1; fractional block at voltage step to 0 mV; 6 min compound incubation. How it is done:
Blocking of Kir1.1 (ROMK1) currents was examined by whole cell voltage clamp (Hamill et. al. Pfluegers Archives 391:85-100 (1981)) using the IonWorks Quattro automated electrophysiology platform (Molecular Devices, Sunnyvale, Calif.). Chinese hamster ovary cells stably expressing Kir1.1 channels were maintained in T-75 flasks in cell culture media in a humidified 10% CO2 incubator at 37° C. Prior to an experiment, Kir1.1 expression was induced by overnight incubation with 1 mM sodium butyrate. On the day of the experiment, cells were dissociated with 2.5 mL of Versene (Invitrogen 15040-066), a non-enzymatic cell dissociation reagent, for approximately 6 min at 37° C. and suspended in 10 mL of bath solution containing (in mM): 150 NaCl, 10 KCl, 2.7 CaCl2, 0.5 MgCl2, and 5 HEPES, at pH 7.4. After centrifugation, the cell pellet was resuspended in approximately 4.0 mL of bath solution and placed in the IonWorks instrument. The intracellular solution consisted of (in mM): 80 K gluconate, 40 KCl, 20 KF, 3.2 MgCl2, 3 EGTA, and 5 Hepes, at pH 7.4. Electrical access to the cytoplasm was achieved by perforation in 0.13 mg/mL amphotericin B for 4 min. Amphotericin B (Sigma A-4888) was prepared as a 40 mg/mL solution in DMSO.
Voltage protocols and current recordings were performed using the IonWorks HT software/hardware system. Currents were sampled at 1 kHz. There was no correction for liquid junction potentials. The test pulse, consisting of a 100 ms (millisecond) step to 0 mV (millivolts) from a holding potential of −70 mV, followed by a 100 ms voltage ramp from −70 mV to +70 mV, was applied before and after a 6 min compound incubation period. Test compounds were prepared by diluting DMSO stock solutions into the bath solution at 3× the final concentration and placed in the instrument in 96-well polypropylene plates. Current amplitudes were measured using the IonWorks software. To assess compound potency, the fractional block during the voltage step to 0 mV was calculated in Microsoft Excel (Microsoft, Redmond, Calif.), and dose-response curves were fitted with Igor Pro 4.0 (WaveMetrics, Lake Oswego, Oreg.). Although not required, a control compound is typically included to support that the assay is giving consistent results compared to previous measurements.

Amino acid sequences for entries named in this document (tags omitted). A change or cut given only in a name is not applied to a line headed by its entry.
UniProt P48048: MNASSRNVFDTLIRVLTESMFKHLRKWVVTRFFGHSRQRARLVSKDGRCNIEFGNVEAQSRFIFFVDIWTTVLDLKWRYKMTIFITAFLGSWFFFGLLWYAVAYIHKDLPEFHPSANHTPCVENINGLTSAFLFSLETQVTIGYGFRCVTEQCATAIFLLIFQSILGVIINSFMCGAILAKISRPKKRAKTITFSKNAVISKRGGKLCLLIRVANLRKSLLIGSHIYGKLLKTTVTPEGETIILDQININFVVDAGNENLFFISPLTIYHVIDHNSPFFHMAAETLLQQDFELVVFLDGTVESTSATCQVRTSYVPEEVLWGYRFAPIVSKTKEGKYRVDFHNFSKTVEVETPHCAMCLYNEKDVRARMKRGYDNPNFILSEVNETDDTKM

Among the data in patent US9850245B2 (Merck Sharp & Dohme Corp., priority 2014, dated 2017) are IC50 values, retold here.

The structures appear in SMILES notation.

By IC50 is commonly meant the concentration that gives 50% inhibition. A low value points to greater potency in that assay.

Regarding `Cc1nc(-n2cnnn2)ccc1C(O)CN1CCC2(CC1)CN(C1=C(Cl)C(=O)OC1)CCO2` (single isomer, unassigned) [Example 25B, 3-chloro-4-(9-(2-hydroxy-2-(2-methyl-6-(1H-tetrazol-1-yl)pyridin-3-yl)ethyl)-1-oxa-4,9-diazaspiro[5.5]undecan-4-yl)furan-2(5H)-one], it took 106 nM to reach half-maximal inhibition in experiment [1] (IC50).

`CC1=C(N2CCOC3(CCN(CC(O)c4ccc(-n5cnnn5)cc4)CC3)C2=O)COC1=O` (single isomer, unassigned) [Example 9B, 9-(2-(4-(1H-tetrazol-1-yl)phenyl)-2-hydroxyethyl)-4-(4-methyl-5-oxo-2,5-dihydrofuran-3-yl)-1-oxa-4,9-diazaspiro[5.5]undecan-5-one] displayed an IC50 in experiment [1] of 12.3 nM. `CC1=C(N2CCOC3(CCN(CC(O)c4ccc(-n5cnnn5)cc4)CC3)C2=O)COC1=O` (single isomer, unassigned) [Example 9A, 9-(2-(4-(1H-tetrazol-1-yl)phenyl)-2-hydroxyethyl)-4-(4-methyl-5-oxo-2,5-dihydrofuran-3-yl)-1-oxa-4,9-diazaspiro[5.5]undecan-5-one]: the IC50 in experiment [1] was determined as 15.8 nM; in experiment [2], 4.8 nM. On the same counts, the results for `CC1=C(N2CCOC3(CCN(CC(O)c4ccc(-n5cnnn5)nn4)CC3)C2=O)COC1=O` (single isomer, unassigned) [Example 45A, 9-(2-(6-(1H-tetrazol-1-yl)pyridazin-3-yl)-2-hydroxyethyl)-4-(4-methyl-5-oxo-2,5-dihydrofuran-3-yl)-1-oxa-4,9-diazaspiro[5.5]undecan-5-one] are 37.3 nM and 15 nM. On the same counts, the results for `Cc1nc(-n2cnnn2)ccc1C(O)CN1CCC2(CC1)CN(C1=C(Cl)C(=O)OC1)CCO2` (single isomer, unassigned) [Example 25A, 3-chloro-4-(9-(2-hydroxy-2-(2-methyl-6-(1H-tetrazol-1-yl)pyridin-3-yl)ethyl)-1-oxa-4,9-diazaspiro[5.5]undecan-4-yl)furan-2(5H)-one] are 5.56 nM and 16 nM. On to `CC1=C(N2CCOC3(CCN(CC(O)c4ccc(-n5cnnn5)nn4)CC3)C2=O)COC1=O` (single isomer, unassigned) [Example 45B, 9-(2-(6-(1H-tetrazol-1-yl)pyridazin-3-yl)-2-hydroxyethyl)-4-(4-methyl-5-oxo-2,5-dihydrofuran-3-yl)-1-oxa-4,9-diazaspiro[5.5]undecan-5-one], for which the IC50 in experiment [1] came to 44.6 nM; in experiment [2], 20 nM.
